Test [1] deals with T1, Tyrosine-protein kinase BTK (Homo sapiens, UniProt Q06187). Briefly: Inhibition of BTK in human Ramos cells assessed as reduction in PLCgamma2 phosphorylation at Tyr759 residue by chemiluminescence based assay. The test is classed as cell-based.
Test [2] concerns the target T1, Tyrosine-protein kinase BTK. Kind of test: Inhibition of BTK (unknown origin).

Sequences of proteins named here, by UniProt entry; tags and fusion partners are left off. A change or cut given only in a name is not applied to a line headed by its entry.
UniProt Q06187: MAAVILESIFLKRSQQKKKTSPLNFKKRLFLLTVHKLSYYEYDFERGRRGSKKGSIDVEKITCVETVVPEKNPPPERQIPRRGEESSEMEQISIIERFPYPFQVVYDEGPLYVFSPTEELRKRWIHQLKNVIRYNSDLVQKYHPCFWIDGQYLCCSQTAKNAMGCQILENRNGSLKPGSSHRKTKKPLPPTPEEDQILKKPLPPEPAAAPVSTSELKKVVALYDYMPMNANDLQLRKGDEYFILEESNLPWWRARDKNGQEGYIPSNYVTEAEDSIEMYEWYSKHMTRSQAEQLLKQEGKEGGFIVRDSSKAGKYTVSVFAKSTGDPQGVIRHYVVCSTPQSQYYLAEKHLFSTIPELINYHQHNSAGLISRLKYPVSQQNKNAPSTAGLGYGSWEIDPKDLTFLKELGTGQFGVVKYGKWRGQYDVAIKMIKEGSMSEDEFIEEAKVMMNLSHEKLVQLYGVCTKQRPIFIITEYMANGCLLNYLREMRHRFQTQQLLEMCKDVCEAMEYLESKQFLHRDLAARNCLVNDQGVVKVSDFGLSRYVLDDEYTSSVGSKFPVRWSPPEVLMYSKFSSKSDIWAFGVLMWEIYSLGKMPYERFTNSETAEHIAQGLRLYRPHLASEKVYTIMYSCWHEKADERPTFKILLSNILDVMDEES

As to `C=CC(=O)N1CCc2ccc(-n3c(=O)ccc4cnc5ccc(-c6cnn(C)c6)cc5c43)cc21`, the half-maximal effective concentration (EC50) in test [1] was found to be 318 nM.
On to `C=CS(=O)(=O)N1CCCC(n2nc(-c3ccc(Oc4ccccc4)cc3)c3c(N)ncnc32)C1` (configuration not stated), for which the 50% inhibitory concentration (IC50) in test [2] was found to be 0.58 nM.

The term EC50 denotes the concentration needed to bring the measured effect to its halfway point. The IC50 is the concentration that gives 50% inhibition.

The values above are taken from ChEMBL document CHEMBL4270507, “Covalent binding design strategy: A prospective method for discovery of potent targeted anticancer agents” (Eur J Med Chem, 2017).
